Laboratory results taken from PMC11363342 (ACS Central Science, 2024).
Several values for one entry are separate records, joined by “and”; a condition that tells them apart may be missing. Identical values can stand only once. Like-named read-outs stand apart in the source and are kept apart here.

Key:
[1] = target: T1, endoplasmic reticulum α-glucosidase II (ER α-Glu II, GANAB) (Homo sapiens, UniProt Q14697); assay: biochemical; details: IC50 GANAB (μM) (ER-Glu-II)
T1 sequence (Q14697 29-944): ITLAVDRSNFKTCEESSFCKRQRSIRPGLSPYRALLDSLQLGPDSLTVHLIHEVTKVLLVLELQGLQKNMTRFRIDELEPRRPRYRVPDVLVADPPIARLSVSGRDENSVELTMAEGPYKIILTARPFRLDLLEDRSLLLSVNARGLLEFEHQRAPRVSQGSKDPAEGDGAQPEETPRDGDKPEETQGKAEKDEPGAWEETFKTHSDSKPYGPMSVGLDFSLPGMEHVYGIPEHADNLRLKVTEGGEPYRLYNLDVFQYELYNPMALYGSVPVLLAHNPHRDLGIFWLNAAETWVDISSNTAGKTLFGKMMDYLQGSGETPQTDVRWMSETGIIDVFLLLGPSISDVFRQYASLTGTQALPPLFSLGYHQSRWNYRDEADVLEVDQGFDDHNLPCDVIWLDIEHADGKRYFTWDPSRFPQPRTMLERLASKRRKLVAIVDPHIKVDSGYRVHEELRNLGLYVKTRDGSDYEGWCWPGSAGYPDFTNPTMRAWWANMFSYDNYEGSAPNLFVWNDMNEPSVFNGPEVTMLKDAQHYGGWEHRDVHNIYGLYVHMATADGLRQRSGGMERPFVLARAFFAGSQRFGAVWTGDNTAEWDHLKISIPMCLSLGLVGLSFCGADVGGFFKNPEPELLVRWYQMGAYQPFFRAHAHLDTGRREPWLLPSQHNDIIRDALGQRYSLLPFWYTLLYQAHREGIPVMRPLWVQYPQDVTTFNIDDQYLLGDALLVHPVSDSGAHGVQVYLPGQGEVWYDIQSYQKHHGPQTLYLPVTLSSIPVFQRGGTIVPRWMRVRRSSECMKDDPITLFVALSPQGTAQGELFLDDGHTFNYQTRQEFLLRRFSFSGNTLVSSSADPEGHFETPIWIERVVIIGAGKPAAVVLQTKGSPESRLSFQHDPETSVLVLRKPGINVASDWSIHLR
T1 sequence (P14314 15-528 partner): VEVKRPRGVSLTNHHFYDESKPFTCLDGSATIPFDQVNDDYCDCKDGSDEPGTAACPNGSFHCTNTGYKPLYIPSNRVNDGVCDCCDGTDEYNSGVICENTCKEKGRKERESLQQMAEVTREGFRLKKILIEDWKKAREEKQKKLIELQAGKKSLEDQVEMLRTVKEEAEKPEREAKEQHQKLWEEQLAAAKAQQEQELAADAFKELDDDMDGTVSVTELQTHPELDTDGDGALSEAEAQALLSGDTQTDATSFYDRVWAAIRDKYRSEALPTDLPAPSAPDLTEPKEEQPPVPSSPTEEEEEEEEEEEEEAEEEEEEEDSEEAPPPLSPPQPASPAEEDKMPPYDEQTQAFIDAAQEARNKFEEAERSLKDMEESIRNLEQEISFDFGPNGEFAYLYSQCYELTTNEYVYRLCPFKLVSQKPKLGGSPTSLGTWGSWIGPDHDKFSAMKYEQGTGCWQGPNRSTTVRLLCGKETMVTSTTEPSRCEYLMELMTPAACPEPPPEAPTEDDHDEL

[2] = target: recombinant human GAA (Myozyme) (Homo sapiens, UniProt P10253); details: for IC50: IC50 GAA (μM)
[3] = fibroblast cell lysates, pH 7.0, 30 min preincubation at 37 °C, 4-MU-α-Glc
[4] = Myozyme, pH 4.0, 30 min preincubation at 37 °C, 4-MU-α-Glc

Structure (SMILES): O=S1(=O)O[C@@H]2[C@@H](O)[C@H](O)[C@@H](CO)C[C@@H]2O1 [Compound 22]
- IC50 [1, 3]: 20.3 ± 3.8 µM
- IC50 [2, 4]: 1.08 µM
- GAA inhibition (in words) ([2]; enzyme activity assay): rather potent GAA inhibitor

Structure (SMILES): CO[C@H]1[C@H](O)[C@@H](O)[C@H]2OS(=O)(=O)O[C@H]2[C@@H]1CO [Compound 14]
- IC50 [1, 3]: 8.15 µM and 8.2 µM
- IC50 [2, 4]: 2.3 µM

Structure (SMILES): O=S1(=O)N[C@@H]2[C@H](O)[C@@H](O)[C@H](O)[C@@H](CO)[C@@H]2O1 [Compound 18]
- IC50 [1, 3]: > 100 µM
- IC50 [2, 4]: 2.63 µM and 6.1 µM

Structure (SMILES): CO[C@H]1[C@H]2OS(=O)(=O)O[C@H]2[C@H](CO)[C@@H](O)[C@@H]1OC [Compound 16]
- IC50 [1, 3]: > 100 µM
- IC50 [2, 4]: > 100 µM

Structure (SMILES): CCCCN1[C@@H]2[C@@H](O)[C@H](O)[C@@H](CO)C[C@@H]21 (stereo partly drawn) [Compound 26]
- IC50 [1, 3]: > 100 µM
- IC50 [2, 4]: > 100 µM

Structure (SMILES): CO[C@H]1[C@H](O)[C@@H](CO)[C@@H]2OS(=O)(=O)O[C@@H]2[C@@H]1O [Compound 13]
- IC50 [1, 3]: 39.8 µM
- IC50 [2, 4]: 37.3 µM

Structure (SMILES): COC[C@@H]1[C@@H](O)[C@H](O)[C@@H](O)[C@H]2OS(=O)(=O)O[C@@H]12 [Compound 15]
- IC50 [1, 3]: > 100 µM
- IC50 [2, 4]: > 100 µM

Structure (SMILES): OC[C@H]1C[C@@H]2N[C@@H]2[C@@H](O)[C@@H]1O [Compound 21]
- IC50 [1, 3]: 43.8 µM
- IC50 [2, 4]: > 100 µM

Structure (SMILES): CCCC(=O)N1[C@@H]2[C@@H](O)[C@H](O)[C@@H](CO)C[C@@H]21 [Compound 25]
- IC50 [1, 3]: > 100 µM
- IC50 [2, 4]: > 100 µM

Structure (SMILES): OC[C@H]1C[C@H]2[C@@H]([C@@H](O)[C@@H]1O)N2CCCCCOCc1cccc2ccccc12 (stereo partly drawn) [Compound 28]
- IC50 [1, 3]: > 100 µM
- IC50 [2, 4]: > 100 µM

Structure (SMILES): O=S1(=O)O[C@@H]2[C@H](O)[C@@H](O)[C@H](O)[C@@H](CO)[C@@H]2O1 [Compound 11, 1,6-epi-cyclophellitol cyclosulfate]
- IC50 [1, 3]: 0.034 ± 0.004 µM
- IC50 [2, 4]: 0.038 ± 0.002 µM

Structure (SMILES): OC[C@@H]1[C@@H](O)[C@H](O)[C@@H](O)CN1CCCCCOCC12CC3CC(CC(C3)C1)C2 [Compound 5]
- IC50 [1]: 0.21 ± 0.07 µM

Structure (SMILES): CO[C@@H]1[C@@H](O)[C@H](O)[C@@H](CO)[C@@H]2OS(=O)(=O)O[C@H]12 [Compound 12]
- IC50 [1, 3]: > 100 µM
- IC50 [2, 4]: > 100 µM

Structure (SMILES): O=S1(=O)N[C@@H]2[C@H](O)[C@@H](O)[C@H](O)[C@@H](CO)[C@@H]2N1 [Compound 19]
- IC50 [1, 3]: > 100 µM
- IC50 [2, 4]: > 100 µM

Structure (SMILES): CCCCN1C[C@H](O)[C@@H](O)[C@H](O)[C@H]1CO [Compound 1, N-butyl-DNJ, reference compound]
- IC50 [1]: 200 µM
- IC50 [2]: 6.58 ± 2.4 µM

Structure (SMILES): OC[C@@H]1[C@@H](O)[C@H](O)[C@@H](O)CN1CCCCCOCc1ccc2ccccc2c1 [Compound 2, naphthyl-deoxynojirimycin]
- IC50 [1, 3]: 0.12 ± 0.07 µM
- IC50 [2, 4]: 0.19 ± 0.01 µM

Structure (SMILES): OC[C@@H]1[C@@H](O)[C@H](O)[C@@H](O)CN1CCCCCOCC1CCCO1 (stereo partly drawn) [Compound 4]
- IC50 [1, 3]: 0.2 ± 0.05 µM
- IC50 [2, 4]: 0.82 ± 0.18 µM

Structure (SMILES): OC[C@@H]1[C@@H](O)[C@H](O)[C@@H](O)[C@H]2O[C@@H]12 [Compound 9, 1,6-epi-cyclophellitol]
- IC50 [2, 4]: 6.7 ± 0.34 µM

Structure (SMILES): OC[C@H]1[C@@H](O)[C@H](O)[C@@H](O)CN1CCCCCOCC12CC3CC(CC(C3)C1)C2 [Compound 8]
- IC50 [1]: 41.1 µM
- GAA inhibition (in words) [2]: no activity

Structure (SMILES): OC[C@@H]1[C@@H](O)[C@H](O)[C@@H](O)CN1CCCCCOCc1cc2ccccc2c2ccccc12 [Compound 3]
- IC50 [1, 3]: 0.15 ± 0.09 µM
- IC50 [2, 4]: 0.034 ± 0.004 µM

Structure (SMILES): OC[C@H]1C[C@H]2[C@@H]([C@@H](O)[C@@H]1O)N2CCCCCOCc1ccc(-c2ccccc2)cc1 (stereo partly drawn) [Compound 24]
- IC50 [1, 3]: > 100 µM
- IC50 [2, 4]: > 100 µM

Structure (SMILES): OC[C@H]1C[C@@H]2O[C@@H]2[C@@H](O)[C@@H]1O [Compound 20]
- IC50 [1, 3]: 11.4 ± 2.3 µM
- IC50 [2, 4]: 13 µM

Structure (SMILES): OC[C@H]1C[C@H]2[C@@H]([C@@H](O)[C@@H]1O)N2CCCCCOCC12CC3CC(CC(C3)C1)C2 (stereo partly drawn) [Compound 27]
- IC50 [1, 3]: > 100 µM
- IC50 [2, 4]: > 100 µM

Structure (SMILES): CC(C)(C)COCCCCCN1C[C@H](O)[C@@H](O)[C@H](O)[C@H]1CO [Compound 7]
- IC50 [1, 3]: 2.12 ± 0.38 µM
- IC50 [2, 4]: 2.19 ± 5.9 µM

Structure (SMILES): OC[C@H]1C[C@H]2[C@@H]([C@@H](O)[C@@H]1O)N2CCCCCOCc1ccc2ccccc2c1 (stereo partly drawn) [Compound 23]
- IC50 [1, 3]: > 100 µM
- IC50 [2, 4]: > 100 µM

Structure (SMILES): OC[C@@H]1[C@@H](O)[C@H](O)[C@@H](O)[C@H]2N[C@@H]12 [Compound 10, 1,6-epi-cyclophellitol aziridine]
- IC50 [1, 3]: 1.47 ± 1.45 µM
- IC50 [2, 4]: 0.2 µM
